The campaign covered roughly 350,000 compounds. About 450 (0.13%) were called active.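 How the source made its calls: active means replicate mean at a twofold rise or more (about +100% in these data); inactive means the rest.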 What follows is part of a selection rich in actives, with near analogues and random picks from the rest.
Assay: UUG initiation codon usage in yeast – whole organism, S. cerevisiae, single point, plate reader, primary screen (AID 602363);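 further: firefly luciferase made from a UUG start codon reports start codon fidelity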
Conditions: S. cerevisiae UUG-firefly luciferase reporter, luminescence/redox ratio; at 18.7 µM; hits give high values

Compound	activity score
C[C@H](O)C#Cc1cnc2c(c1)C(=O)N([C@H](C)CO)C[C@H](C)[C@H](CN(C)C(=O)c1ccc(F)cc1)O2	9.52% (inactive)
CC(C)NC(=O)N(C)C[C@@H]1Oc2c(cccc2N(C)C)C(=O)N([C@@H](C)CO)C[C@H]1C	-11.2% (inactive)
C[C@H]1CN([C@@H](C)CO)C(=O)c2cc(NS(=O)(=O)c3cccs3)ccc2O[C@@H]1CN(C)C(=O)Nc1ccccc1	-9.65% (inactive)
C[C@@H]1CN([C@@H](C)CO)S(=O)(=O)c2ccc(C#CCN(C)C)cc2O[C@@H]1CN(C)CC1CC1	33.3% (inactive)
C[C@@H]1CCCCO[C@@H](CN(C)Cc2ccc(C(=O)O)cc2)[C@H](C)CN([C@@H](C)CO)C(=O)c2cc(NC(=O)C3CCCCC3)ccc2O1	3.06% (inactive)
COc1ccc(NC(=O)Nc2cccc3c2O[C@@H](CN(C)Cc2ccncc2)[C@H](C)CN([C@H](C)CO)C3=O)cc1	-5.85% (inactive)
CC(C)C#Cc1ccc2c(c1)O[C@@H](CN(C)C(=O)Nc1ccccc1)[C@H](C)CN([C@H](C)CO)S2(=O)=O	-2.56% (inactive)
CCC(=O)N(C)C[C@@H]1Oc2ncc(C#CCC3CCCC3)cc2C(=O)N([C@@H](C)CO)C[C@H]1C	5.33% (inactive)
O=C(c1ccncc1)N1C[C@H]2[C@@H](c3ccccc31)[C@H](CO)N2C(=O)c1ccccn1	-20.1% (inactive)
O=C(N[C@H]1CC[C@@H](CCNS(=O)(=O)c2ccc(Cl)cc2)O[C@H]1CO)c1cccc(F)c1	12.6% (inactive)
CC(C)CC#Cc1cnc2c(c1)C(=O)N([C@H](C)CO)C[C@H](C)[C@@H](CN(C)Cc1ccccc1)O2	16.5% (inactive)
C[C@H](CO)N1C[C@H](C)[C@@H](CN(C)C(=O)C2CCCCC2)Oc2cc(-c3ccccc3)ccc2S1(=O)=O	9.53% (inactive)
C[C@H]1CN([C@@H](C)CO)C(=O)c2cc(NC(=O)Cn3cnnn3)ccc2O[C@@H]1CN(C)S(=O)(=O)c1cccs1	-10.2% (inactive)
O=C(O)C[C@@H]1C[C@@H]2c3cc(NC(=O)NC4CCCC4)ccc3O[C@@H]2[C@H](CO)O1	-9.94% (inactive)
COc1cccc(S(=O)(=O)Nc2ccc3c(c2)[C@H]2C[C@H](CC(=O)O)O[C@H](CO)[C@H]2O3)c1	-0.528% (inactive)
Cc1noc(C)c1NC(=O)Nc1ccc2c(c1)C(=O)N([C@H](C)CO)C[C@H](C)[C@@H](CN(C)Cc1ccc3c(c1)OCO3)OCCCC[C@@H](C)O2	-5.08% (inactive)
C[C@@H]1CN([C@@H](C)CO)C(=O)c2cc(C#CC(C)(C)O)cnc2O[C@@H]1CN(C)C(=O)C1CCOCC1	-1.48% (inactive)
Cc1cccc(NC(=O)CN2C(=O)CNC2=O)c1	-17.5% (inactive)
CCc1ccc(NC(=O)CN2C(=O)CSC2=O)cc1	-4.72% (inactive)
CC(=O)N1CC(=O)N(CC(=O)Nc2ccc(Br)cc2)C1=S	120% (active)
CCCNC(=O)N(C)C[C@H]1Oc2ncc(C#CC(C)C)cc2C(=O)N([C@@H](C)CO)C[C@@H]1C	11.9% (inactive)

Compound	activity score
CO[C@H]1CN(C)C(=O)c2cc(NC(=O)c3cc(C)on3)ccc2OC[C@H](C)N(C(C)=O)C[C@H]1C	7.59% (inactive)
O=C(Cc1ccccn1)N[C@H]1CC[C@H](CCNS(=O)(=O)c2cccc(F)c2)O[C@@H]1CO	-14.5% (inactive)
CC(=O)N1C[C@@H]2[C@H](c3ccccc31)[C@H](CO)N2C(=O)Nc1ccc(F)cc1	27% (inactive)
O=C(C[C@@H]1C=C[C@H](NC(=O)CCN2CCCCC2)[C@H](CO)O1)NCc1ccc(Cl)c(Cl)c1	-10.1% (inactive)
O=C(Nc1ccc(Oc2ccccc2)cc1)c1ccco1	570% (active)
Cc1ccc(NC(=O)c2ccco2)cc1	13.9% (inactive)
O=C(NNC(=O)c1ccco1)Nc1ccccc1	-11.9% (inactive)
CC(C)NC(=O)N1CCCCN2[C@H](CO)[C@H](c3ccc(C#C[C@H](C)O)cc3)[C@H]2C1	4.66% (inactive)
Cc1noc(C)c1S(=O)(=O)N(C)C[C@@H]1OCCCC[C@H](C)Oc2ccc(NC(=O)Nc3ccc4c(c3)OCO4)cc2C(=O)N([C@H](C)CO)C[C@@H]1C	-17.6% (inactive)
O=C(Nc1ccc(Cl)cc1)N1C[C@@H]2[C@H](c3ccccc31)[C@@H](CO)N2C(=O)c1cccnc1	-17% (inactive)
CC(C)NC(=O)Nc1ccc2c(c1)C(=O)N([C@@H](C)CO)C[C@H](C)[C@@H](CN(C)C(=O)Nc1ccc(F)cc1)OCCCC[C@H](C)O2	-6.2% (inactive)
C[C@H](CO)N1C[C@H](C)[C@H](CN(C)Cc2ccc3c(c2)OCO3)Oc2c(cccc2N(C)C)C1=O	-9.31% (inactive)
COc1ccc(S(=O)(=O)N(C)C[C@H]2OCCCC[C@@H](C)Oc3ccc(NC(=O)CCC(F)(F)F)cc3C(=O)N([C@@H](C)CO)C[C@H]2C)cc1	1.93% (inactive)
C=CCOC(=O)[C@H]1[C@@H]2C(=O)O[C@@H](c3ccccc3)[C@@H](c3ccccc3)N2[C@@H](c2ccc(OCCOC(=O)[C@H]3C[C@H]4C(=O)NCC(=O)N4[C@H]3c3ccc(O)cc3)cc2)[C@]12C(=O)Nc1ccccc12	-7.32% (inactive)
COc1ccccc1-c1cnc2c(c1)C(=O)N([C@H](C)CO)C[C@@H](C)[C@@H](CN(C)CC1CCCC1)O2	-0.682% (inactive)
C[C@H](CO)N1C[C@H](C)[C@H](CN(C)C(=O)c2ccccn2)Oc2ncc(-c3ccccc3F)cc2C1=O	9.71% (inactive)
Cc1noc(C)c1NC(=O)N(C)C[C@@H]1Oc2ccc(NS(=O)(=O)c3ccc(Cl)cc3)cc2C(=O)N([C@@H](C)CO)C[C@H]1C	9.56% (inactive)
C[C@H](CO)N1C[C@H](C)[C@@H](CN(C)Cc2ccc(Cl)c(Cl)c2)Oc2c(NC(=O)C3CCCCC3)cccc2C1=O	0.419% (inactive)
CO[C@H]1CN(C)C(=O)c2cc(NS(C)(=O)=O)ccc2OC[C@H](C)N(C(=O)C2CCCC2)C[C@H]1C	-1.38% (inactive)
C[C@@H]1CN([C@H](C)CO)C(=O)Cc2cc(NS(=O)(=O)c3ccc(Cl)cc3)ccc2O[C@@H]1CN(C)S(=O)(=O)c1ccc(Cl)cc1	-17.9% (inactive)
Cc1ccc(S(=O)(=O)N(C)C[C@@H]2Oc3ccc(NS(=O)(=O)c4c(C)noc4C)cc3CC(=O)N([C@H](C)CO)C[C@H]2C)cc1	12.2% (inactive)

Compound	activity score
CCCNC(=O)C[C@H]1CC[C@@H]2[C@H](COc3ccc(NC(=O)c4ccc(OC)cc4)cc3C(=O)N2C)O1	4.65% (inactive)
C[C@@H](NC(=O)C[C@H]1C[C@H]2c3cc(NC(=O)Nc4ccccc4F)ccc3O[C@H]2[C@@H](CO)O1)c1ccccc1	-2.05% (inactive)
CCCNC(=O)N1C[C@@H](O)COC[C@H]2O[C@@H](CC(=O)NCCCN3CCOCC3)CC[C@@H]21	-4.24% (inactive)
C[C@@H]1CN([C@@H](C)CO)C(=O)c2cc(NS(=O)(=O)c3cccs3)ccc2O[C@@H]1CN(C)S(=O)(=O)c1ccc(F)cc1	2.8% (inactive)
C[C@@H]1CCCCO[C@@H](CN(C)S(C)(=O)=O)[C@H](C)CN([C@@H](C)CO)C(=O)c2cc(NC(=O)Nc3ccc4c(c3)OCO4)ccc2O1	12.2% (inactive)
C[C@H]1CN([C@@H](C)CO)C(=O)c2cc(-c3ccccc3F)cnc2O[C@@H]1CN(C)C(=O)C1CCCCC1	12.9% (inactive)
CO[C@@H]1CN(C)C(=O)c2cc(NC(=O)NC3CCCCC3)ccc2OC[C@H](C)N(CC2CC2)C[C@H]1C	-4.52% (inactive)
CC(=O)N(C)C[C@H]1Oc2cc(C#CC3CC3)ccc2S(=O)(=O)N([C@H](C)CO)C[C@@H]1C	22% (inactive)
COc1ccccc1C#Cc1ccc([C@H]2[C@H](CO)N3CCCCN(C(=O)C4CCC4)C[C@@H]23)cc1	29.8% (inactive)
Cc1ccccc1-c1cnc2c(c1)C(=O)N([C@@H](C)CO)C[C@@H](C)[C@@H](CN(C)CC1CCOCC1)O2	-10.7% (inactive)
C[C@H]1CN([C@@H](C)CO)S(=O)(=O)c2ccc(C#CCN(C)C)cc2O[C@H]1CN(C)C(=O)CN(C)C	28.3% (inactive)
C[C@@H]1CN([C@@H](C)CO)S(=O)(=O)c2ccc(C#C[C@@H](C)O)cc2O[C@@H]1CN(C)C(=O)CN(C)C	-1.41% (inactive)
CC(C)C#Cc1ccc2c(c1)O[C@@H](CN(C)C(=O)CN(C)C)[C@@H](C)CN([C@H](C)CO)S2(=O)=O	61.3% (active)
C[C@@H]1CN([C@@H](C)CO)S(=O)(=O)c2ccc(C#Cc3ccc(F)cc3)cc2O[C@@H]1CN(C)CC1CC1	11.3% (inactive)
C/C=C/c1ccc2c(c1)O[C@@H](CN(C)C(=O)NC1CCCC1)[C@@H](C)CN([C@H](C)CO)S2(=O)=O	12.5% (inactive)
C[C@@H]1CN([C@@H](C)CO)S(=O)(=O)c2ccc(C#Cc3ccc(F)cc3)cc2O[C@H]1CN(C)C(=O)NC1CCCC1	273% (active)
Cc1ccc(S(=O)(=O)N(C)C[C@@H]2Oc3ccc(NC(=O)NC4CCCCC4)cc3C(=O)N([C@@H](C)CO)C[C@H]2C)cc1	-6.25% (inactive)
C[C@@H]1CN([C@@H](C)CO)S(=O)(=O)c2ccc(C#Cc3ccccc3)cc2O[C@@H]1CN(C)C(=O)C1CC1	-28.6% (inactive)
COCC#Cc1cnc2c(c1)C(=O)N([C@@H](C)CO)C[C@@H](C)[C@@H](CN(C)C(=O)c1cccnc1)O2	-8.09% (inactive)
CN1c2ccc(Br)cc2[C@@H]2[C@@H](CCN2C(=O)C2CCCCC2)[C@H]1CO	25.4% (inactive)

Source: PubChem BioAssay AID602363 (Broad Institute, 2012)
